The chains behind the UniProt entries cited, without tags or fusion partners. Where a name states a change or a piece, a line headed by the entry shows the natural chain unless it says otherwise.
UniProt O42275: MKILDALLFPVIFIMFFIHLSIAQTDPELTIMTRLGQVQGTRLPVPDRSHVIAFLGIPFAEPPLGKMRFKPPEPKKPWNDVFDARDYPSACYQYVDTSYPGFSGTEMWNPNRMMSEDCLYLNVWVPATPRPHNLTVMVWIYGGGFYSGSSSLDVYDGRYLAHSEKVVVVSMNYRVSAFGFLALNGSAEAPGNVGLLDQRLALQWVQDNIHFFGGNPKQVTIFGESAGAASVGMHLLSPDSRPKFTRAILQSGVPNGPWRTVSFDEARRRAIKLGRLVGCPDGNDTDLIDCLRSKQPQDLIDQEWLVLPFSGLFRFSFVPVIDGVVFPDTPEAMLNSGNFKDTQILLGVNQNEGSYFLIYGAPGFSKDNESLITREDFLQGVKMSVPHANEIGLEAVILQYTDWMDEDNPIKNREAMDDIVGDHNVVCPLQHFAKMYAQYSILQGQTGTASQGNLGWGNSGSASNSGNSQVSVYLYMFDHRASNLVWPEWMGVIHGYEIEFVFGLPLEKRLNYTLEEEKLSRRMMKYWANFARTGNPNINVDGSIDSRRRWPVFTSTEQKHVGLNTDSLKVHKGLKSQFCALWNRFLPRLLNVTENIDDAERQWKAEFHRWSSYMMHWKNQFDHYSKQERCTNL

In ChEMBL document CHEMBL1140164, “Isosorbide-2-carbamate esters: potent and selective butyrylcholinesterase inhibitors” (J Med Chem, 2008):

Target: Acetylcholinesterase (Electrophorus electricus, UniProt O42275)
Assay: Inhibition of electric eel AchE by Ellman's method
How it was run: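 Ellman assay with electric eel AChE and ATCI as substrate, phosphate buffer pH 8.0, DTNB (0.5 mM solution). Enzyme and inhibitor incubated 30 min before substrate addition; absorbance read at 405 nm over 5 min. Initial screen at 100 µM inhibitor; IC50 fitted only where inhibition was significant, reported with 95% confidence interval. Triplicate.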

CNC(=O)Oc1ccc2c(c1)[C@]1(C)CCN(C)[C@@H]1N2C [PHYSOSTIGMINE]
IC50: 0.103 µM
